Measured affinities in a library of Ab-14 light chain variants

All variants were tested on one target, the spike HR2 peptide PDVDLGDISGINAS (SARS-CoV-2).

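Phage display of a naive human antibody library on the peptide gave the parent. These sequences belong to a second round, designed from the earlier measurements on random variants of the parent. Group labels follow the data file (En: ensemble of fine-tuned language models; GP: Gaussian process model; HC: hill climbing; Gen: genetic algorithm; Gibbs: Gibbs sampling; a sequence that several methods proposed may carry one label only). The assay is AlphaSeq: two haploid yeast populations carry antibody and antigen on their surface. Pairs that bind mate more often; barcode pairs of the diploids are counted by sequencing. A regression on co-assayed BCL2-family reference pairs converts the normalised counts of each replicate to an apparent Kd. Mating was done six times.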

Parent scFv Ab-14: VH joined to VL by three GGGGS repeats. Changes lie in the light chain CDRs alone.
VH: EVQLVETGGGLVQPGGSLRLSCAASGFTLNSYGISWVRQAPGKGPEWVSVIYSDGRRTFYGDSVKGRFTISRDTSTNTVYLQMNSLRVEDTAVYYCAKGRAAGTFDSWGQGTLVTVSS
VL: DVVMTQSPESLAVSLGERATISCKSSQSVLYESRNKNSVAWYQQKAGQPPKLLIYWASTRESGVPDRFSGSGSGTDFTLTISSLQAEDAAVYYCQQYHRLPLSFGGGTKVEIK

The parent's light chain CDRs are KSSQSVLYESRNKNSVA, WASTRES, QQYHRLPLS; each variant's own CDRs replace them letter for letter. Variants here have more than six changes. Kd is apparent (estimated from mating counts) and averaged on the log scale over replicates with a signal. Smaller is tighter. A pair that was not seen in any replicate is written "nd"; this usually means weak binding, but a binder can also be missed. The authors' rule: three or more of the six replicates give a measured affinity, fewer mean a poor binder. The range of this assay differs from that of the first round, and the authors advise against merging the two. Three control strains display no target. For all light chain designs, 4% of the pairings with them gave a signal, with a median of 430 nM and one signal in twenty below 38 nM, so weak values seen in few replicates may be background. The parent sequence was in this pool as ten entries: three were never detected, three once, and four in most replicates, with averages from 2.2 nM to 240 nM.

With KLQQLDLYGSRNKNSVA / QASTRMV / QAYHRLPLS [GP_Gibbs] the result was 1.7 nM (6 of 6 replicates). The variant MISQLYNMGTFAINSVA / QASIRNM / QQYDRLPLA [En_Gen] showed 490 pM (6 of 6 replicates). The variant KVEMSVPYEQRNKNSVA / HASVRES / QQYHRLPLS [GP_Gibbs] showed 1.4 nM (6 of 6 replicates). The variant KLQQSWEYESRNSNNVA / MGSQRED / QQYHRLPLS [GP_Gibbs] gave 2.5 nM (6 of 6 replicates). For ILNLSPMEHQIHMDAIA / QEAIRNA / QQYARLPLS [En_Gibbs], the assay gave 45 nM (5 of 6 replicates). The variant KLSQSSNYLSRVMNSVA / DNSTRES / QQYFRLPLS [En_HC] gave 5.1 nM (6 of 6 replicates).

The variant KLQQSWEYESRNSNSVA / QASTRMS / QQYHRLPLS [GP_Gibbs] gave 4.0 nM (6 of 6 replicates). The variant KLSTLFYKESKQKNNVA / EMTTRGS / QQYDRLPLS [En_HC] showed 910 pM (6 of 6 replicates). The variant KLSQSELYESRCANNVA / NASQRES / QQYHRLPLS [GP_Gibbs] showed 4.3 nM (6 of 6 replicates). The variant MMLSGSVEVQNIQNAVA / EASMVYD / QQYVSLPLS [En_Gibbs] gave 44 nM (1 of 6 replicates). With MISQSFLIGMKAKNSVA / QTSTREE / QQYDRLPLA [En_HC] the result was 7.3 nM (6 of 6 replicates). For RVQLNSGHIDMHWYNIA / SASIRAD / QQYFRLPLF [En_Gibbs], the assay gave 9.6 nM (6 of 6 replicates).

For KIGQLTTYHSQIGNSIA / QTSTREE / QQYHRLPLS [En_HC], the assay gave 110 nM (6 of 6 replicates). The variant QLGKNQVGDTLMQHAIA / HDALRVD / QQYFRLPLL [En_Gibbs] gave 2.0 nM (6 of 6 replicates). The variant KLMWSVMLQSRNKNSVA / QASTRMM / QQYHRLPLS [GP_Gibbs] gave 41 nM (4 of 6 replicates). With KISMTYRYESQEKNSIA / EMTTREE / QSYHRLPLS [En_HC] the result was 38 nM (6 of 6 replicates). For KISQSWLYEPRNSNSVA / NASTRLR / QQYHRLPLS [GP_Gibbs], the assay gave 4.1 nM (6 of 6 replicates). With NFSQMVLSGSTLRNSVA / HASTRFD / QQYHRLPLI [En_HC] the result was 15 nM (6 of 6 replicates).

With KITATMRFEQKISNNIA / EVTQRSK / QQYYRLPLS [En_Gen] the result was 20 nM (6 of 6 replicates). The variant KISSMSNHQSSVANNVA / ENVTREE / QQYFRLPLA [En_Gen] gave 130 nM (4 of 6 replicates). The variant NISYLQGLSTNSVNNVA / QASMRAP / QYYQRLPLC [En_Gibbs] gave 5.6 nM (5 of 6 replicates). The variant KIGQQVTYESTNKNAIA / QMTTRES / QQYHHLPLS [En_HC] showed 13 nM (6 of 6 replicates). For NLMSGGSELSVWSRNIA / SANIRES / QQYFRLPLL [En_Gibbs], the assay gave 2.2 nM (6 of 6 replicates). The variant KLFDETSSEQVNARAVA / DSHTVSE / QQYHMLPLA [En_Gibbs] showed 8.7 nM (6 of 6 replicates).

The variant KLVGSWLYESRNKNAVA / RASQRCS / QQYHRLPLS [GP_Gibbs] showed 14 nM (6 of 6 replicates). The variant IVSQLMLWGMHARNSIA / EAETRIN / QQYERLPLF [En_Gen] gave nd (0 of 6 replicates). With KLVQFMNRGTHMTSNIA / DAQNRSD / QQYARLPLA [En_Gen] the result was 2.2 nM (6 of 6 replicates). The variant TITGMVEEIETTQKNIA / EGEFRCM / QQYSRLPLS [En_Gibbs] showed 170 nM (5 of 6 replicates). The variant SIDPYEAMAGKNKESIA / EAAVTLT / QQYARLPLS [En_Gibbs] showed 3.8 nM (6 of 6 replicates). With MISQLFNMGQFAINSVA / QASTRCQ / QQYDRLPLM [En_Gen] the result was 43 nM (1 of 6 replicates).

With TLSQMMDMTSRNVNSVA / DLTTRGN / QQYHRLPLS [En_HC] the result was 2.6 nM (6 of 6 replicates). The variant HISMSVGMTSFQKNSVA / ENSTREN / QQYDRLPLS [En_HC] showed 58 nM (6 of 6 replicates).

The closing 4 entries, repeated:

{"CDR-L1": "SIDPYEAMAGKNKESIA", "CDR-L2": "EAAVTLT", "CDR-L3": "QQYARLPLS", "group": "En_Gibbs", "Kd": "3.8 nM", "seen in": "6 of 6"}
{"CDR-L1": "MISQLFNMGQFAINSVA", "CDR-L2": "QASTRCQ", "CDR-L3": "QQYDRLPLM", "group": "En_Gen", "Kd": "43 nM", "seen in": "1 of 6"}
{"CDR-L1": "TLSQMMDMTSRNVNSVA", "CDR-L2": "DLTTRGN", "CDR-L3": "QQYHRLPLS", "group": "En_HC", "Kd": "2.6 nM", "seen in": "6 of 6"}
{"CDR-L1": "HISMSVGMTSFQKNSVA", "CDR-L2": "ENSTREN", "CDR-L3": "QQYDRLPLS", "group": "En_HC", "Kd": "58 nM", "seen in": "6 of 6"}

Values reported by Li et al. 2023, doi:10.1038/s41467-023-39022-2 (FLAb copy).